## scFv variants of Ab-14 (heavy chain) against a SARS-CoV-2 spike peptide

Reference: Li et al. 2023, doi:10.1038/s41467-023-39022-2. File: FLAb, binding data.

Binding partner: SARS-CoV-2 spike HR2 peptide, sequence PDVDLGDISGINAS.

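The parent was found by panning a naive human phage display library on the peptide. Designed CDR sequences, proposed from the first random library and measured here. Group labels follow the data file (Ctrl: baseline library sampled from a position-specific scoring matrix, with some repeated check sequences; En: ensemble of fine-tuned language models; HC: hill climbing; Gen: genetic algorithm; Gibbs: Gibbs sampling; a sequence that several methods proposed may carry one label only). The assay is AlphaSeq: two haploid yeast populations carry antibody and antigen on their surface. Pairs that bind mate more often; barcode pairs of the diploids are counted by sequencing. Read counts were normalised to the haploid input and turned into Kd by a linear fit to BCL2-family pairs of known affinity, for each replicate. Each pool was mated in six replicate cultures.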

Each scFv is VH, the linker GGGGSGGGGSGGGGS, VL, as in the parent Ab-14, and differs from it in the CDRs of the heavy chain only.
VH: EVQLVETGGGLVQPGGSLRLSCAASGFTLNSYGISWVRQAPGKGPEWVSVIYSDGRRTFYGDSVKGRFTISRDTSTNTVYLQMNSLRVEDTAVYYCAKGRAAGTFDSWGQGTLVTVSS
VL: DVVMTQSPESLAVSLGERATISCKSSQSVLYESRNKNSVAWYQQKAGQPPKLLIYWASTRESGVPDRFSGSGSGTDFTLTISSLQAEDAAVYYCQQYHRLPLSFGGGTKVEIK

The parent's heavy chain CDRs are GFTLNSYGIS, VIYSDGRRTFYGDSVK, GRAAGTFDS; each variant's own CDRs replace them letter for letter. Variants here have more than six changes. Numbers give log10(Kd / nM), so 0 is 1 nM and 3 is 1 µM. Smaller is tighter. The mean shown is taken over the replicates in which the pair was detected. An entry "nd" has no value in the source: the pair was not observed among the diploids in that replicate. This suggests poor binding but is not conclusive. The authors' rule: three or more of the six replicates give a measured affinity, fewer mean a poor binder. Of ten entries with the parent sequence, four were seen in most replicates (averages 0.34 to 2.37), three in one and three in none, so single entries are noisy. Three control strains display no target. For all heavy chain designs, 1% of the pairings with them gave a signal, with a median of 2.08 and one signal in twenty below 0.84, so weak values seen in few replicates may be background. Also given: how often the same scFv was detected with the empty control strains. Values of this round are not directly comparable with the first-round values of the same sequences.

For GFDLDEYGIS, VIYADGKRTAYADSVK, GKNAGTFDV [En_Gen], the assay gave -0.63, -0.60, -0.06, -0.24, -0.11, -0.10 (mean -0.29; controls 0 of 18).
For GFSLDEMGIS, VIYADGQRSFYQASVK, GVNSGTVFV [En_Gibbs], the assay gave nd, nd, nd, nd, nd, nd (controls 0 of 18).
For GFNLNEYGIS, VIYADGRRTFYADSVK, GQIAGTFNV [En_HC], the assay gave -0.31, -0.09, -0.39, -0.08, -0.22, 0.03 (mean -0.18; controls 0 of 18).
For GFSLDEMGIS, VIYADGVRTAYVDQVK, GMGGTFMND [En_Gibbs], the assay gave nd, nd, nd, nd, nd, nd (controls 0 of 18).
For GFDLGEYGIS, VIYADGSRKAYATSFK, GGSGYFDGV [En_Gibbs], the assay gave 2.93, nd, nd, nd, nd, 4.69 (mean 3.81; controls 2 of 18).
For GFDLNEYGIS, VIYADGRRTFYADSVK, GNIAGTFFS [En_HC], the assay gave 0.26, 0.52, 0.57, 0.62, 0.13, 0.28 (mean 0.40; controls 0 of 18).
For GFDLDEYGIS, VIYADGQRTAYSDSVK, GANAGTFDV [En_Gen], the assay gave -0.11, -0.19, -0.50, -0.23, -0.66, -0.10 (mean -0.30; controls 0 of 18).
For GFDLNEYGIS, VIYADGMRTAYLDSVK, GQLAGTFDT [En_HC], the assay gave -0.04, -0.03, -0.13, -0.06, -0.09, -0.01 (mean -0.06; controls 2 of 18).
For GFDLNEYGIS, VIYADGRRTFYTDSVK, GEIAGTFDQ [En_HC], the assay gave 0.19, -0.13, -0.16, -0.21, 0.10, 0.43 (mean 0.04; controls 0 of 18).
For GFEIQDYGIS, VIYADGLRTSYSNKFK, GIIAGTFES [En_Gibbs], the assay gave nd, nd, nd, nd, nd, nd (controls 0 of 18).
For GFNLDEYGIS, VIYADGRRTAYADSVK, GEHAGTFDT [En_HC], the assay gave 0.13, 0.17, -0.21, -0.10, -0.24, -0.15 (mean -0.07; controls 1 of 18).
For GFDLNEYGIS, VIYADGMRTSYTDSVK, GENAGTFDV [En_Gen], the assay gave 0.13, 0.39, 1.38, -0.39, 0.18, 0.07 (mean 0.29; controls 0 of 18).
For GFDLNEYGIS, VIYADGIRTAYSDSVK, GGNAGFFDQ [En_HC], the assay gave nd, nd, nd, nd, nd, nd (controls 1 of 18).
For GFDLNEYGIS, VIYADGRRTFYIDSVK, GENAGTFDM [En_HC], the assay gave -0.72, -0.63, -0.62, -0.72, -0.86, -0.78 (mean -0.72; controls 1 of 18).
For GFDLNEYGIS, VIYADGRRSFYADSVK, GQIAGTFDS [En_HC], the assay gave 0.11, 0.44, -0.82, -0.57, -0.11, -0.96 (mean -0.32; controls 0 of 18).
For GFDLEDYGIS, VIYADGKRTAYADDVK, GNVAGTFDV [En_Gen], the assay gave -0.58, -0.51, -0.49, -0.86, -0.64, -0.52 (mean -0.60; controls 1 of 18).
For GFDLNEYGIS, VIYADGRRTFYADSVK, GNTAGTFLI [En_HC], the assay gave -0.08, -0.32, 0.08, -0.39, -0.21, -0.23 (mean -0.19; controls 1 of 18).
For GFSLDEMGIS, VIYADGQRTAYQDNVK, SVNGVVVFL [En_Gibbs], the assay gave nd, nd, nd, nd, nd, nd (controls 0 of 18).
For GFDLNEYGIS, VIYADGVRQAYADSVK, GEVAGTFDV [En_Gen], the assay gave -0.51, 0.21, -0.52, -1.03, -0.43, -0.28 (mean -0.43; controls 0 of 18).
For GFDIEEYGIS, VIYADGIRQAYKDKVK, GWDVGTFSV [En_Gibbs], the assay gave nd, nd, nd, nd, nd, nd (controls 0 of 18).
For GFDLNEYGIS, VIYADGKRTAYADSVK, GNNAGTFDL [En_Gen], the assay gave -0.16, -0.63, -0.36, -0.35, -0.35, -0.17 (mean -0.34; controls 2 of 18).
For GFDLEDYGIS, VIYADGMRTAYADSVK, GNTAGTFDV [En_Gen], the assay gave -0.63, -0.78, -0.84, -0.49, -1.15, -0.37 (mean -0.71; controls 0 of 18).
For GDNLDEYGIS, VIYADGHRTAYSNPVK, GEYGVVVGD [En_Gibbs], the assay gave nd, nd, nd, nd, nd, nd (controls 0 of 18).
For GFDLNEYGIS, VIYADGRRTFYLDSVK, GQIAGTFDQ [En_HC], the assay gave -0.53, -0.06, -0.18, -0.11, 0.07, -0.76 (mean -0.26; controls 0 of 18).
For GFDIGEYGIS, VIYADGRRKAYSDAVK, GIDVYGKTV [En_Gibbs], the assay gave nd, nd, nd, nd, nd, nd (controls 0 of 18).
For GFDLDQYGIS, VIYADGIRSYYADSVK, GHEGGILYV [En_Gibbs], the assay gave nd, nd, nd, nd, nd, nd (controls 0 of 18).
For GFDLNEYGIS, VIYADGRRTFYKDSVK, GTNAGTFDV [En_HC], the assay gave -0.21, -0.46, -0.69, -0.64, -0.39, -0.36 (mean -0.46; controls 0 of 18).
For GFDLDEYGIS, VIYADGMRTAYADDVK, GNNAGTFDT [En_Gen], the assay gave -0.53, -0.97, 0.09, -1.00, -0.53, -0.60 (mean -0.59; controls 0 of 18).
For GFELQEYGIS, VIYADGMRTAYSDNVK, GDARGIFHM [En_Gibbs], the assay gave nd, nd, nd, nd, nd, nd (controls 0 of 18).
For GFDLNEYGIS, VIYADGRRTFYADSVK, GQIAGTFDQ [En_HC], the assay gave -0.22, -0.50, -0.73, -0.63, -0.89, -0.42 (mean -0.56; controls 0 of 18).
For GFDLNEYGIS, VIYADGRRTAYTDSVK, GEVAGTFDS [En_HC], the assay gave -0.09, -0.53, -0.24, -0.45, -0.28, -0.40 (mean -0.33; controls 0 of 18).
For GKALDEYGIS, VIYADGKRTFYSNTVK, GEDGFFYDQ [En_Gibbs], the assay gave nd, nd, nd, nd, nd, nd (controls 2 of 18).
For GFDLNEYGIS, VIYADGVRTAYVDSVK, GNVAGTFDV [En_Gen], the assay gave 0.70, 0.84, 0.26, 0.46, -0.05, 0.26 (mean 0.41; controls 0 of 18).
For GMDLDEYGIS, VIYADGSRVFYVQDVK, GTVDVVGDV [En_Gibbs], the assay gave nd, nd, nd, nd, nd, nd (controls 0 of 18).
For GFDLNEYGIS, VIYADGRRTQYIDSVK, GEQAGTFDT [En_HC], the assay gave -0.18, -0.32, -0.18, -0.01, -0.01, 0.14 (mean -0.09; controls 0 of 18).
For GFDLNEYGIS, VIYADGLRTSYADSVK, GQEAGTFDI [En_HC], the assay gave -0.58, -0.50, -0.42, -0.69, -0.56, -0.41 (mean -0.52; controls 0 of 18).
For GFDLNEYGIS, VIYADGMRTVYADSVK, GQNAGTFDQ [En_HC], the assay gave nd, nd, nd, nd, nd, nd (controls 0 of 18).
For GFDLNDYGIS, VIYSDGRRTFYSDSVK, GRLTFTFDQ [Ctrl], the assay gave nd, nd, nd, nd, nd, nd (controls 0 of 18).
For GFDLNEYGIS, VIYADGRRTFYADSVK, GKNAGTFDV [En_HC], the assay gave -0.76, -0.33, -0.71, -0.76, -0.75, -0.93 (mean -0.71; controls 0 of 18).
For GFDLNEYGIS, VIYADGRRTFYADSVK, GEAGGTFDA [En_HC], the assay gave 0.15, -0.01, 0.23, 0.60, 0.41, 1.15 (mean 0.42; controls 1 of 18).
For GFDLNEYGIS, VIYADGMRTFYADSVK, GEVAGTFDE [En_HC], the assay gave -0.25, -0.62, -0.37, -0.59, -0.67, -0.45 (mean -0.49; controls 2 of 18).
For GFSFNEYGIS, VIYADGKRQAYANNVK, GGKDAAFDI [En_Gibbs], the assay gave nd, nd, nd, nd, nd, nd (controls 0 of 18).
For GFDLNEYGIS, VIYADGRRTFYSDSVK, GTQGGTFDM [En_HC], the assay gave 0.10, 0.10, -0.06, -0.37, 0.03, -0.15 (mean -0.06; controls 1 of 18).